{"source": "patent US20060160114A1", "about": "“Reagents and methods for predicting drug resistance” (Oncotech, Inc., priority 2004, published 2006)", "test_system": "tumor cells from patient tumor samples", "test": "Extreme Drug Resistance (EDR) assay, tritiated thymidine incorporation in soft agarose culture", "assay_type": "cell-based, human", "conditions": "of the sixteen tumors that were EDR to paclitaxel", "method": "In the practice of this assay, tumor cells are taken from a cancer biopsy and exposed to cancer chemotherapeutics in culture. During the culture period, radioactive thymidine is added, which is incorporated into the DNA of growing and dividing cancer cells (which are thus resistant to the cytostatic or cytotoxic effects of the cancer chemotherapeutic). Tritiated thymidine is not incorporated into cells that are sensitive to the drug and reduce or suspend growth and division in response to the drug. […] By measuring the amount of radioactivity in a sample, the assay determines the relative resistance of an individual patient's cancer cells to a number of different chemotherapies. […]\nThe EDR assay is an agarose-based culture system, using tritiated thymidine incorporation to define in vitro drug response. […] The radioactivity trapped on the filters was counted with an LS-6500 scintillation Counter (Beckman, Fullerton, Calif.). […] Detectable radioactivity for this group was considered non-specific background related to debris trapping of tritiated thymidine on the filter. After subtracting background control values, percent control inhibition (PCI) of proliferation was determined by comparing thymidine incorporation by the treatment group with incorporation by the negative control group: PCI=100%×[1−(CPM treatment group/CPM control group)]. […]"}
{"smiles": "CC(=O)O[C@@]12CO[C@@H]1C[C@H](O)[C@@]1(C)C(=O)[C@H](O)C3=C(C)[C@@H](OC(=O)[C@H](O)[C@@H](NC(=O)OC(C)(C)C)c4ccccc4)C[C@@](O)([C@@H](OC(=O)c4ccccc4)[C@H]21)C3(C)C", "note": "[docetaxel]", "values": [{"measurement": "number of tumors that were EDR", "value": "two"}]}
